# Bioassay records (PubChem BioAssay)
# Rows were chosen to be rich in hits. Some 2.2% of all compounds tested hit in one or more screens of this group.
# miR-21 reporter – raises the signal of a miR-21 reporter | Potency, µM (doses to about 38.3 µM), for inactives: top-dose reporter change, positive = more light | HeLa miR-21 FLuc reporter, luciferase, 48 h | AID 2288 | 340,000 tested, under 10 active; active = well fitted rising curve with a large enough effect; inconclusive = small, poorly fitted or top-dose-only effect; inactive = no such curve, though single readings can be large or run the other way;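 also: % of control where 0% means no effect; miR-21 action dims this reporter so a rising signal means less miR-21 action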
#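 HeLa cells endogenously expressing miR-21, stably carrying CMV-driven firefly luciferase with a downstream miR-21 binding site, 2000 cells/well. Titrations up to approximately 40 uM, 48 hours; luciferase luminescence read.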
# A549 tox – kills or reduces viability of A549 cells in Nrf2 counter-screen; 390,000 tested, 0.16% active; AID 504648; Potency, µM (series often up to 46 µM), without a hit: at the highest dose activity change, negative = cytotoxicity, usual class: inhibitors; A549 ARE-Fluc cells, CellTiter-Fluor viability, 18-24 h; further: potency means the concentration at half of the fitted maximal effect; on the % scale 0 is the no-effect control and ±100 the full control effect
#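 A549 ARE-Fluc cells in 5% FBS OPTI-MEM, 5000 cells/well, rested 2 h then exposed to compounds in concentration-response for 18-24 h at 37 °C. Viability by CellTiter-Fluor fluorescence (Ex 405/Em 525) after 30 min; luciferase luminescence (BugLite, 15 min, RT) read afterwards.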
# Nrf2 inh – inhibitors of Nrf2 signaling; A549 ARE-Fluc reporter, luciferase luminescence, 18-24 h; 360,000 tested, 2.1% active; Potency, µM (doses to about 46 µM), for the others: top-dose activity change, negative = inhibition, usual class: inhibitors; further: potency means the concentration at half of the fitted maximal effect; on the % scale 0 is the no-effect control and ±100 the full control effect; nearly all actives have a fitted effect of over 60% in size
#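 Nrf2 function is reported as luminescence of an ARE-controlled luciferase in A549 cells. Compounds were tested at several concentrations, and a CellTiter-Fluor read on the same wells flagged cytotoxicity.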
# B2AR arrestin – beta2AR (human) beta-arrestin recruitment activity; P07550; beta-arrestin recruitment to beta2AR, cell-based reporter; Potency, µM (doses to about 46.1 µM), without a hit: at the top dose activation, hits mostly activators; 330,000 tested, 0.02% active; AID 492947;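 further: potency means the concentration at half of the fitted maximal effect; 0% = DMSO controls and full agonism = EC100 isoproterenol or metaproterenol; nearly all actives have a fitted effect of over 65% in size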
# Nrf2 activator – activators of Nrf2 (ARE) signaling. AREc32 ARE-luciferase reporter (MCF7-derived line), luminescence, 24 h. Potency, µM (highest dose often 46.1 µM), for inactives: top-dose activation, actives largely listed as activators. 410,000 tested, 0.31% active. AID 624171; further: potency means the concentration at half of the fitted maximal effect; % of control where 0% means no effect; nearly all actives have a fitted effect of over 65% in size
#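 Quantitative high-throughput format: AREc32 reporter cells, 1000 per well, received compound by pin transfer and were incubated 24 hr at 37 deg C, 5% CO2, before Steady-Glo luminescence detection.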
# * hit, by the source's call; ? = inconclusive; nt = no result given. Unless noted, the call rests on the fitted dose curve; in most records, active means well fitted curve in the direction sought with a large enough effect; inconclusive means small, poorly fitted or top-dose-only effect, or another doubt; inactive means no such curve, though single readings can be large; an effect the other way counts as inactive or inconclusive.
SMILES,miR-21 reporter,A549 tox,Nrf2 inh,B2AR arrestin,Nrf2 activator
Cn1cnc(C(=O)NCc2ccc(CNC(=O)OC(C)(C)C)cc2)c1C(=O)NCc1ccc(CNC(=O)OC(C)(C)C)cc1,nt,1%,18µM*,-1%,0%
CC(C)(C)c1ccc(C(=O)N2CCN(CCNC(=O)C(=O)NCc3ccc(Cl)cc3)CC2)cc1,7%,?,21µM*,0%,0%
CC(C)(C)OC(=O)NCc1ccc(CNC(=O)c2nc[nH]c2C(=O)N2CCN(C(=O)OC(C)(C)C)CC2)cc1,nt,-21%,26µM*,0%,0%
Cc1ccc(/C=C2\SC(=S)N(CCCC(=O)NNC(=O)c3ccccc3O)C2=O)cc1,?,-3%,10µM*,-1%,-3%
CCc1ccc(/C=C2\SC(=S)N(CCCC(=O)Nc3cc(C)on3)C2=O)cc1,nt,nt,nt,nt,-6%
CCc1ccc(/C=C2\SC(=S)N(CCC(=O)Nc3cc(C)on3)C2=O)cc1,14%,2%,6.5µM*,0%,-1%
COc1cc(/C=C2\SC(=S)N(CCC(=O)NC3CCCC3)C2=O)cc(OC)c1OC,-1%,-15%,?,0%,2%
Cc1ccc(/C=C2\SC(=S)N(CCCC(=O)NC3CCCC3)C2=O)cc1,?,8%,10µM*,0%,-3%
Cc1ccc(/C=C2\SC(=S)N(CCC(=O)NNC(=O)c3ccccc3O)C2=O)cc1,-3%,-15%,?,0%,-2%
CCC(=O)C1=C(c2cccc(OC)c2)N(C(=O)CC)n2c(nnc2C2CCCCC2)S1,?,-20%,nt,nt,6%
CCOc1ccc(N(CC)S(=O)(=O)N2CCCC(C(=O)NCc3ccccc3OCC)C2)cc1 (centres undefined),29%,4%,?,nt,0%
Cc1ccc(CCS(=O)(=O)c2ccc(C(C)(C)C)cc2)cn1,11%,-4%,8.2µM*,-1%,-1%
Cc1cc(Oc2ccc(N)cn2)cc(C)c1Cl,4%,1%,-5%,0%,1%
CC(C)(C)c1ccc(Oc2ccc(N)cn2)cc1,29%,-4%,18µM*,-1%,-1%
COc1ccc(C(=O)N2CCN(c3ccccc3)CC2)cc1S(=O)(=O)N1CCCC1,-2%,9%,2%,0%,3%
Cc1ccc(C(=O)N2CCN(c3ccccc3)CC2)cc1S(=O)(=O)N1CCCC1,14%,-11%,21µM*,0%,2%
Cc1ccc(C(=O)N2CCN(c3ccc(F)cc3)CC2)cc1S(=O)(=O)N1CCCCC1,19%,-10%,12µM*,0%,-1%
CCc1cc(C(=O)NC2CCCN(Cc3ccccc3F)C2)n(C)n1 (centres undefined),17%,-9%,13µM*,0%,0%
Cn1nc(C(=O)NC2CCCN(Cc3ccccc3F)C2)c2ccccc2c1=O (centres undefined),19%,-18%,-15%,0%,2%
Nc1ccc(S(=O)(=O)N2CCCN(S(=O)(=O)c3ccc4c(c3)OCCO4)CC2)cc1,nt,-14%,-8%,nt,nt
CC(Nc1ccccc1N1CCCCC1)C(=O)N1CCc2ccccc21 (centres undefined),0%,-9%,9.2µM*,0%,0%
CCOc1ccc(NC(=O)Nc2cccn(Cc3ccccc3)c2=O)cc1,1%,?,9.2µM*,0%,5%
O=C(NCc1ccccc1)Nc1cccn(Cc2ccccc2)c1=O,-26%,-2%,?,0%,7%
Cc1cc2c(s1)c1cnn(Cc3c(Cl)cccc3Cl)c(=O)c1n2C,nt,-7%,4%,nt,nt
O=C(C1CCC1)N1CCc2cc(S(=O)(=O)Nc3ccc4c(c3)OCO4)ccc21,-2%,-8%,10µM*,-1%,0%

# In a second layout: 2 of the compounds above.
Cc1ccc(/C=C2\SC(=S)N(CCCC(=O)NNC(=O)c3ccccc3O)C2=O)cc1
  miR-21 reporter: ?
  A549 tox: -3%
  Nrf2 inh: 10µM*
  B2AR arrestin: -1%
  Nrf2 activator: -3%

CCc1ccc(/C=C2\SC(=S)N(CCCC(=O)Nc3cc(C)on3)C2=O)cc1
  miR-21 reporter: nt
  A549 tox: nt
  Nrf2 inh: nt
  B2AR arrestin: nt
  Nrf2 activator: -6%

# Continuation:
SMILES,miR-21 reporter,A549 tox,Nrf2 inh,B2AR arrestin,Nrf2 activator
Cc1ccc(NS(=O)(=O)c2ccc3c(c2)CC(C)N3C(=O)C2CCC2)cc1Cl (centres undefined),12%,-16%,21µM*,nt,2%
CCOc1ccc(NS(=O)(=O)c2ccc3c(c2)CCN3C(=O)C2CCC2)cc1,-1%,-8%,?,0%,0%
Cc1cc(Cl)ccc1NS(=O)(=O)c1ccc2c(c1)CC(C)N2C(=O)C1CCC1 (centres undefined),15%,-2%,21µM*,nt,2%
COc1ccc(COC[C@H](C)[C@H](O[Si](C)(C)C)[C@@H](C)[C@H]2OC(=O)[C@H]2C)cc1,nt,2%,0%,nt,nt
O=C(OCC#CCSc1nnc(-c2cccc3ccccc23)o1)C1CCC1,nt,1%,7%,nt,nt
C=CCOc1ccc(CN(C)c2ccc(S(=O)(=O)N3CCN(C)CC3)cc2[N+](=O)[O-])cc1,nt,2%,-11%,0%,4%
CCOc1ccc(CN(C)c2ccc(S(=O)(=O)N3CCN(C)CC3)cc2[N+](=O)[O-])cc1OC,nt,-4%,16µM*,0%,2%
Cc1ccc(NC(=O)N2CCC(CN3CCC(C)CC3)CC2)cc1F,-27%,0%,9%,nt,0%
C=CCOC(=O)c1sc(NC(=O)c2ccco2)nc1C,-28%,nt,?,-1%,5µM*
COc1ccc(C(=O)Nc2ccc(NC(=O)c3cccs3)cc2)cc1Cl,-8%,-1%,-12%,-1%,0%
COc1cc(C(=O)Nc2ccc(C(=O)c3cccs3)cc2)cc(OC)c1OC,10%,-21%,21µM*,0%,4%
COc1ccc(C(=O)Nc2ccc(NC(=O)c3cccs3)c(OC)c2)cc1Cl,-14%,-17%,9.2µM*,0%,0%
COc1c(Cl)cc(Cl)cc1C(=O)Nc1ccc(NC(=O)c2cccs2)cc1,11%,-15%,10µM*,-1%,-1%
COc1ccc2c(c1OC)C(=O)N1c3ccccc3C(=O)N(Cc3ccco3)C21 (centres undefined),nt,-13%,0%,nt,nt
O=[S+]([O-])(c1c(F)cccc1F)N1CCN([S+](=O)([O-])c2c(F)c(F)c(F)c(F)c2F)CC1,nt,-4%,-8%,nt,nt
CCc1ccc(NC(=O)c2ccc3[nH]c(C)c(C)c3c2)cc1,-33%,12%,?,nt,5%
Cc1[nH]c2ccc(C(=O)Nc3ccncc3)cc2c1C,-4%,-3%,12µM*,0%,4%
C=CCOC(=O)Nc1snnc1C,-3%,3%,nt,-1%,0%
Cc1nnsc1NC(=O)OCc1ccc(C(C)(C)C)cc1,18%,-14%,10µM*,-1%,1%
Cc1ccc(OCCN2CCN(C(=O)CCC(=O)Nc3nnc(C)s3)CC2)cc1,0%,1%,-1%,0%,0%
Cc1ccc(OCCN2CCN(C(=O)CCC(=O)Nc3nnc(C(C)C)s3)CC2)cc1,17%,?,12µM*,0%,4%
Cc1ccc(CN(Cc2ccco2)C(=O)COc2ccc(C(C)C)cc2)cc1,9%,7%,18µM*,nt,-1%
N#CC(C#N)=C1C=CC=CN1/C(=C\c1ccco1)C(=O)c1ccccc1,?,-21%,-5%,-1%,-3%
COc1ccc(C(=O)/C(=C\c2ccco2)N2C=CC=CC2=C(C#N)C#N)cc1,?,18µM*,?,-1%,?

# Quoted from above for reference:
SMILES,miR-21 reporter,A549 tox,Nrf2 inh,B2AR arrestin,Nrf2 activator
COc1ccc2c(c1OC)C(=O)N1c3ccccc3C(=O)N(Cc3ccco3)C21 (centres undefined),nt,-13%,0%,nt,nt
O=[S+]([O-])(c1c(F)cccc1F)N1CCN([S+](=O)([O-])c2c(F)c(F)c(F)c(F)c2F)CC1,nt,-4%,-8%,nt,nt
CCc1ccc(NC(=O)c2ccc3[nH]c(C)c(C)c3c2)cc1,-33%,12%,?,nt,5%
Cc1[nH]c2ccc(C(=O)Nc3ccncc3)cc2c1C,-4%,-3%,12µM*,0%,4%
C=CCOC(=O)Nc1snnc1C,-3%,3%,nt,-1%,0%
